Drawing on publication PMC2761767 (Journal of medicinal chemistry, 2009), this text covers Solubility for one substance.

The nature of this data set: Solubility. The data set is classed as physicochemical.

“2-(3-Benzo[b]furyl)-6,7-methylenedioxyquinolin-4-one [Compound 37]”: the Solubility entry was “reasonable solubility”.
